# From patent US5560935A, “Physiologically active substances extracted from activated tissues” (Nippon Zoki Pharmaceutical Co., Ltd., priority 1993, dated 1996)
# Tested on: plasma kallikrein
# Assay: Inhibition of the production of plasma kallikrein (kaolin-activated plasma, synthetic substrate)
# Format: biochemical
# Details: normal human plasma, kaolin activation, substrate D-Pro-Phe-Arg-p-nitroaniline
# Experimental: The inhibitory action of the physiologically-active substance against the production of plasma kallikrein was measured according to a method described in Kiso to Rinsho, vol. 20, no. 17, pages 399-405 (1986).
# Thus, a suspension of kaolin was added to normal human plasma diluted with a physiologically saline solution. A lima bean trypsin inhibitor was added thereto after a certain period to stop the kallikrein procluction reaction. Then the resulting kallikrein was determined by using a synthetic substrate (D-Pro-Phe-Arg-p-nitroaniline). The test substance was placed in the above system whereby the inhibitory action of the test substance against the production of kallikrein was determined.
# In Table 1 the potency of the activity is given in terms of the concentration (IC50) at which the production of the plasma kallikrein was inhibited to an extent of 50%: […]
smiles,measurement,value
COc1ccc2c(c1)c(CC(=O)O)c(C)n2C(=O)c1ccc(Cl)cc1 [Indomethacin],"IC50, concentration at which the production of the plasma kallikrein was inhibited to an extent of 50%",370 micrograms/ml
